Results published in PubChem BioAssay AID1645882 (National Center for Advancing Translational Sciences (NCATS), 2021).
Only a part is listed here, and it is no random draw. Some tests of the compounds listed are not included; inactive here does not mean inactive elsewhere. Inconclusive results are not listed. Active and inactive are the calls of the source. Calls come from the whole dose curve; as a rule, active = well fitted inhibition curve with a large enough effect; inconclusive = small, poorly fitted or top-dose-only effect; inactive = no such curve, though single readings can be large or run the other way.

Protein sequences, listed by entry. Tags and fused reporters are not part of them.
UniProt O95398, whole entry: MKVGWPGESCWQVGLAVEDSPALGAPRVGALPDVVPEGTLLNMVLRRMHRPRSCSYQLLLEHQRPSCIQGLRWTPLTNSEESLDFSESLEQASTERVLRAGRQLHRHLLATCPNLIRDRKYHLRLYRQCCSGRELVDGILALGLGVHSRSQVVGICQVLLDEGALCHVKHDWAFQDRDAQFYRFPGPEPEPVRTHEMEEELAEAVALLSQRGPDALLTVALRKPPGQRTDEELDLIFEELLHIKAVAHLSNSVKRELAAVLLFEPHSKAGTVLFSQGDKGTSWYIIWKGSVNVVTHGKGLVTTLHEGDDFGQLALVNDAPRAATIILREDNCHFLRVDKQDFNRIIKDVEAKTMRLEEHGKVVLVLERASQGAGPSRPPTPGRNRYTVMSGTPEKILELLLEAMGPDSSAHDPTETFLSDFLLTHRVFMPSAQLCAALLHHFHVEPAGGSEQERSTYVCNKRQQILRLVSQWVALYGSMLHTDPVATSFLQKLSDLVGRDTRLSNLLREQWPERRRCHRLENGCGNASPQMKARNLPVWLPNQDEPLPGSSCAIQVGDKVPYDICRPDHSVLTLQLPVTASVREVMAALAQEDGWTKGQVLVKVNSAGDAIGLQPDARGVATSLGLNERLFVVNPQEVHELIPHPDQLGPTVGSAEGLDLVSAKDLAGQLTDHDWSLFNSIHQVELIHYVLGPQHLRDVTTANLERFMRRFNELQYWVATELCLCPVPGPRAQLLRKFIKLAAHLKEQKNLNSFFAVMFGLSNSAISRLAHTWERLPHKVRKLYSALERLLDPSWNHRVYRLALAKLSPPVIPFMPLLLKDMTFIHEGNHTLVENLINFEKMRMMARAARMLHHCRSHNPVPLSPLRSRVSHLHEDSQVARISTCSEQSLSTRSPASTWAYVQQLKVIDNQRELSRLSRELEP

Biological target: Rap guanine nucleotide exchange factor 3 (Homo sapiens) (UniProt O95398)
Experiment: Validation qHTS for antagonist of cAMP-regulated guanine nucleotide exchange factor 3 (EPAC1);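 note: plate controls were DMSO for no effect and ATA control for full effect; nearly all actives have a fitted effect of over 75% in size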
Settings: EPAC1 Rap1B-BODIPY-GDP exchange, fluorescence; at 150 µM (top of the series)
Text: Assay Provider (PI): Xiaodong Cheng Ph.D.
The University of Texas Medical Branch, […], TX
In multi-cellular eukaryotic organisms, the effects of cAMP are transduced by two ubiquitously-expressed intracellular cAMP receptors, the classic protein kinase A/cAMP-dependent protein kinase (PKA/cAPK) and the more recently discovered exchange protein directly activated by cAMP/cAMP-regulated guanine nucleotide exchange factor (EPAC/cAMP-GEF). Both PKA and EPAC are ubiquitously expressed in all tissues, and an increase in intracellular cAMP levels will lead to the activation of both PKA and EPAC. […]
This qHTS will be used to screen the Molecular Libraries Small Molecule Repository (MLSMR) as a concentration-titration series using the NCGC unique quantitative screening (qHTS) platform to find activators for EPAC1. […] Activators are identified by monitoring the change in fluorescence signal as the exchanged free BODIPY-GDP has a reduced fluorescence compared to Rap1-bound BODIPY-GDP. […]
Briefly, three uL of reagents (100 nM EPAC1, 250 nM RAP1B-BODIPY-GDP, 50 uM GDP) were dispensed into a 1536-well Greiner black solid-bottom medium binding assay plate. […] The assay plates were read at 5 minute intervals for 30 minutes in the ViewLux plate reader using 480nm excitation and 540nm emission filters. […]

Structure (SMILES) | activity change, negative = inhibition
CN1CCCC(OC(=O)C(O)(c2ccccc2)c2ccccc2)C1 (stereo unspecified) | inactive: 9.54%
